{"sequences": {"note": "By UniProt entry, the sequences of proteins in these tests, tags left out.", "UniProt A0ACD5V6K6, entry or part of it": "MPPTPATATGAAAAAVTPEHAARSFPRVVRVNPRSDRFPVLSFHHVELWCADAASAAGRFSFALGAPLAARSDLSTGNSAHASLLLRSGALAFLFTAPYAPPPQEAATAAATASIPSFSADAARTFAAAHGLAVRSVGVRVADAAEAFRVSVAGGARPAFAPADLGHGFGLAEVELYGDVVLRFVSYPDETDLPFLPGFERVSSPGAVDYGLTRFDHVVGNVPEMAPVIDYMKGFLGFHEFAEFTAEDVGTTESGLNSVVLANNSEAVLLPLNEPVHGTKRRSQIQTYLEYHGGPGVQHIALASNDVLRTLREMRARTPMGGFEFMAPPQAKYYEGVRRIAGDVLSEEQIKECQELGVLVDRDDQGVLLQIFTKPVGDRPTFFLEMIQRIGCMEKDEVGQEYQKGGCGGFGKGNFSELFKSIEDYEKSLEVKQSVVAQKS", "UniProt A0ACG8AE61, entry or part of it": "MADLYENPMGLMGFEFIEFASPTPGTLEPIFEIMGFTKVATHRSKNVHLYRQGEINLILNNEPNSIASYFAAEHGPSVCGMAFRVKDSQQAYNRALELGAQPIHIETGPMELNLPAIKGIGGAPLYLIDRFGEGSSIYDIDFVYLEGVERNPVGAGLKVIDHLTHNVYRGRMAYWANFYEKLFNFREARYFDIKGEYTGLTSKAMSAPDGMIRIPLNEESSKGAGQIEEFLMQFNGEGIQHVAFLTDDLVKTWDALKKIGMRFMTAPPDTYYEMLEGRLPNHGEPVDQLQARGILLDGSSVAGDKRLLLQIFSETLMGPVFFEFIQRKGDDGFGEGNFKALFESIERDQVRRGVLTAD"}, "source": "patent US20090172831A1", "about": "“Methods for the production of plants resistant to HPPD herbicides” (Syngenta Limited, priority 2000, published 2009)", "key": {"maize HPPD": {"tested_on": "maize HPPD", "assay": "Inhibition of part purified HPPD after pre-incubation with inhibitor", "format": "biochemical", "experimental": "Qualitative measurements of the differences in Kd values in respect of different HPPD inhibitors are obtained by pre-incubating enzyme with inhibitor and, then, subsequently, measuring the % inhibition. For example HPPD is isolated from maize seedlings, part purified and assayed by similar methods to those described by Schulz et al 1993 (FEBS LETS. 318, 162-166) and by Secor (1994) in Plant Physiol. 106, 1429-1433. Assays are run for 30 minutes and started with addition of radiolabelled hydroxyphenylpyruvate (final concentration ˜0.1-0.2 mM) following a 20-30 min period over which inhibitor is pre-incubated with the part-purified enzyme.\nThe following levels of inhibition (relative to controls) are observed with the following doses of herbicide versus maize HPPD"}, "Avena HPPD": {"biological_target": "Avena HPPD (Avena sativa, UniProt A0ACD5V6K6)", "assay": "In vitro measurements of Avena HPPD (dissociation rate constants, Ki)", "format": "binding", "conditions": "read-out: rate constants governing dissociation of the complexes"}, "P. fluorescens HPPD": {"biological_target": "P. fluorescens HPPD (Pseudomonas fluorescens, UniProt A0ACG8AE61)", "assay": "Dissociation of enzyme/inhibitor complexes by exchange with 14C-labelled inhibitor (koff; Kd = koff/kon)", "format": "binding", "description": "Herbicidal inhibitors of HPPD are found here to have generally low values of koff (in the range less than 0.0003 s^−1, often less than 0.000001 s^−1). It will be appreciated that many suitable methods known in the art for determining such low koff values are suitable for working the current invention. These include measuring rates of exchange of radio or otherwise labelled inhibitors either with or away from the enzyme inhibitor complex. For example enzyme inhibitor complexes can readily be prepared by incubating HPPD preparations with labelled or unlabelled inhibitor and then, after suitable periods, optionally rapidly separating the thus formed enzyme inhibitor complex from excess inhibitor by any suitable method such as ultrafiltration, binding to filters or exchange down a gel filtration column. Exchange reactions with the, thus prepared enzyme inhibitor complex is then initiated by addition of, as appropriate, excess labelled or unlabelled inhibitor. […] Many methods such as radiometric, fluorimetric, NMR, fluorescence depolarisation, EPR, Mossbauer, UV/VIS spectrophotometry etc. or phonon resonance can, in principle, be used to monitor the enzyme/ligand exchange reactions and, particularly in this case where the enzyme contains an iron atom at the ligand binding site. Optionally, the monitoring method may be continuous (as, for example, with scintillation proximity/bead-based methods) or, discontinuous, based upon collection of data at various timepoints wherein samples are removed and the bound and unbound label components rapidly separated and quantitated.\nValues of koff can suitably be calculated by computer fitting based upon is numerical integration of the exchange data along with information on the active-site concentration of HPPD and upon kon values obtained as described below. […] In any event, koff values are always here calculated from the rate of the major slow exchange reaction. […]\nNot all test inhibitors are readily available in a radiolabelled form. […] The reaction is then monitored and the relative proportions of bound and unbound label determined at various times. […]"}, "[1]": {"tested_on": "tobacco plants transformed to express wheat HPPD", "assay": "Tolerance of tobacco transformed with wheat HPPD to herbicides", "conditions": "in vivo"}}, "note": "Where two headings read alike, the source gives them in different places.", "data": [{"smiles": "CS(=O)(=O)c1ccc(C(=O)C2C(=O)CCCC2=O)c([N+](=O)[O-])c1", "note": "[Structure I, 2-(Nitro-4-methanesulphonylbenzoyl)-cyclohexane-1,3-dione]", "values": [{"measurement": "fold less active against the maize enzyme than structure IV", "setting": "maize HPPD", "result": "~10", "unit": "fold"}, {"measurement": "inhibition (relative to controls)", "setting": "maize HPPD; 1 nM", "result": "<17", "unit": "%"}, {"measurement": "inhibition (relative to controls)", "setting": "maize HPPD; 10 nM", "result": 44, "unit": "%"}, {"measurement": "inhibition (relative to controls)", "setting": "maize HPPD; 100 nM", "result": 51, "unit": "%"}, {"measurement": "inhibition (relative to controls)", "setting": "maize HPPD; 1000 nM", "result": ">75", "unit": "%"}, {"measurement": "koff", "setting": "Avena HPPD", "result": "> 0.0008", "unit": "s⁻¹"}, {"measurement": "koff", "setting": "P. fluorescens HPPD; − glycerol, read-out: koff", "result": "2e-06", "unit": "s⁻¹"}]}, {"smiles": "Cc1cc(C#N)ccc1C(=O)C1C(=O)C(C)(C)C(=O)C(C)(C)C1=O", "note": "[Structure VI, 2-[2-methyl-4-cyanobenzoyl]-4,4,6,6-tetramethylcyclohexane-1,3,5-trione]", "values": [{"measurement": "resistance of the transgenic plants compared with that to mesotrione", "setting": "[1]", "result": "substantially less resistant"}, {"measurement": "koff", "setting": "P. fluorescens HPPD; pH 7, in water at pH 7.0 and at 25 C, values of Table 3 restated", "result": "> 0.0002", "unit": "s⁻¹"}, {"measurement": "koff", "setting": "P. fluorescens HPPD; − glycerol, read-out: koff", "result": "> 0.0004", "unit": "s⁻¹"}]}]}
